In general, IC50 refers to the concentration at which inhibition is half-maximal.

By UniProt entry, the sequences of proteins in these tests, tags left out. Residues count along the entry.
UniProt P25774, 115-331: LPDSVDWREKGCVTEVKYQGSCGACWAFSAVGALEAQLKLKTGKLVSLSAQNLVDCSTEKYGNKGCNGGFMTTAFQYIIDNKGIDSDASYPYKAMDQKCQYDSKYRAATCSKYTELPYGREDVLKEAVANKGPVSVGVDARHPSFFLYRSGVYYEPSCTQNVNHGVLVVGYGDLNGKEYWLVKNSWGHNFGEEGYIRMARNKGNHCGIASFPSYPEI

Consider two molecules from patent US6583155B2, “Method for treating allergies using substituted pyrazoles” (priority 2000, dated 2003).

This test deals with Recombinant human cathepsin S (CatS) (Homo sapiens, UniProt P25774). Nature of the test: biochemical.

Turning to `CS(=O)(=O)N1CCc2c(c(-c3ccc(C(F)(F)F)cc3)nn2CCCN2CCC(n3c(=O)n(CC#N)c4ccccc43)CC2)C1` [Example 9, [3-(1-{3-[5-Methanesulfonyl-3-(4-trifluoromethyl-phenyl)-4,5,6,7-tetrahydro-pyrazolo[4,3-c]pyridin-1-yl]-propyl}-piperidin-4-yl)-2-oxo-2,3-dihydro-benzoimidazol-1-yl]-acetonitrile], the IC50 is 100 nM. For `Cn1c(=O)n(C2CCN(CCCn3nc(-c4ccc(C(F)(F)F)cc4)c4c3CCN(S(C)(=O)=O)C4)CC2)c2cc(Cl)ccc21` [Example 10, 5-Chloro-3-(1-{3-[5-methanesulfonyl-3-(4-trifluoromethyl-phenyl)-4,5,6,7-tetrahydro-pyrazolo[4,3-c]pyridin-1-yl]-propyl}-piperidin-4-yl)-1-methyl-1,3-dihydro-benzoimidazol-2-one] the value was 90 nM.
